This assay deals with FaDu cells. The experiment in a line: Immunohistochemistry of tumor tissue penetration of Cetuximab-TPP11. To be noted: 1.25 mg/kg intravenously, 3 hours after injection. The assay is classed as in vivo, Balb/c nude mice. How it is done:
At 3 hours after injection, the tumor was extracted from the mice and subjected to immunohistochemistry. The tissue was stained and observed in the same manner as described in Example 6.

On to “Cetuximab: anti-EGFR antibody for treatment of solid tumors”, for which the tumor tissue penetration entry is “green fluorescence was observed around the blood vessels”.

Source of the values: patent US10400022B2, “Neuropilin-1 specific binding peptide, fusion protein fused with same, and use thereof” (AJOU UNIVERSITY INDUSTRY-ACADEMIC COOPERATION FOUNDATION, priority 2015, dated 2019).
